pKd: −log10 of the molar value.
Molecular target: turkey β3C-adrenoceptor (tβ3C) (Meleagris gallopavo, UniProt A0A803YLI8)
Assay: 3H-CGP12177 whole cell binding, CHO tβ3C cells

By UniProt entry, the sequences of proteins in these tests, tags left out.
UniProt A0A803YLI8, entry or part of it: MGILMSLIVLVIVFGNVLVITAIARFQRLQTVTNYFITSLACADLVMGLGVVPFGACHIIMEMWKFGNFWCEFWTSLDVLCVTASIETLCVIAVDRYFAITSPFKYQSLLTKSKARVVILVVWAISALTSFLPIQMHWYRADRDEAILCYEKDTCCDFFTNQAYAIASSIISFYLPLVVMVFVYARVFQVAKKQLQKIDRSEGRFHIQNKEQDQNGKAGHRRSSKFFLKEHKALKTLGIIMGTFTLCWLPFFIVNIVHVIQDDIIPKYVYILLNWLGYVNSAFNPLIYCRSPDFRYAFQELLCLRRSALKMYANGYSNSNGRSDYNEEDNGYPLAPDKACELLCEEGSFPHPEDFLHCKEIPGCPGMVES

`COc1ccccc1OCCNCC(O)COc1cccc2[nH]c3ccccc3c12` (stereo not shown) [Carvedilol] was tested. Which pKd did it give?
The pKd was 9.58.
